One series has as its system healthy mice. Particulars: mouse, in vivo.
Another series concerns BM-induced mice. Particulars: mouse, in vivo. The protocol: Studies were also performed to determine if macrophages in pulmonary fibrotic lungs might be specifically targeted with folate-linked drugs in vivo. […] (The BM model is widely regarded to be helpful in terms of enabling mechanistic investigations relevant to fibrogenesis in an in vivo context.)
More specifically, eight-week-old C57BL6 male mice from Charles River (average weight 22 g to 25 g) were housed under pathogen-free conditions at room temperature (22° C.) under a 12 hours light-dark cycle. Mice were placed on a folate deficient chow (Envigo Teklad Global Rat Food Pellets) for 1 week prior to the BM or PBS instillation. Fresh water and folate-deficient diet were freely available. […]
Thereafter, the mice were anesthetized with ketamine/xylazine and the necks of the mice were shaved using hair remover lotion and then sterilized with 70% alcohol. […] Body weights were monitored every other day throughout the experiment. […]
For the subsequent HYP analysis, 10 μl of sample was transferred into a 96-well plate and neutralized with 10 μl of 5.3 M sodium hydroxide solution. […] The absorbance was measured at 560 nm (A560) within 15 min. […]
Two doses were given every other day till day 21. […] Mice were then sacrificed on day 21 and subjected immediately to bronchoalveolar lavage followed by resection of the lungs for immunohistochemistry and quantitation of collagen and hydroxyproline.

Molecules are shown by their SMILES.

Take `CCCCc1nc2c(N)nc3ccccc3c2n1CC(C)(C)O` [Compound 1A]: in the series on healthy mice, the “systemic cytokine release (plasma IL-6, IFNα, TNFα)” value is on record as “stimulates systemic cytokine release”. Moreover, in the series on BM-induced mice, the weight loss is listed as more than 25%.

Source of the values: patent publication US20260284016A1, “COMBINATIONS AND METHODS FOR ENHANCING CHECKPOINT INHIBITOR THERAPIES IN CANCER TREATMENT” (PURDUE RESEARCH FOUNDATION, priority 2004, published 2026).
